# PMC9515155
# Biological target: human IgE (Calbiochem) (human)
# Assay: SPR
substance,measurement,value
omalizumab,Kd,14.9 nM
